Experimental data: patent US10208020B2 (dated 2019)

Sequences of proteins named here, by UniProt entry; tags and fusion partners are left off. Residues count along the entry.
UniProt Q13231, 22-466: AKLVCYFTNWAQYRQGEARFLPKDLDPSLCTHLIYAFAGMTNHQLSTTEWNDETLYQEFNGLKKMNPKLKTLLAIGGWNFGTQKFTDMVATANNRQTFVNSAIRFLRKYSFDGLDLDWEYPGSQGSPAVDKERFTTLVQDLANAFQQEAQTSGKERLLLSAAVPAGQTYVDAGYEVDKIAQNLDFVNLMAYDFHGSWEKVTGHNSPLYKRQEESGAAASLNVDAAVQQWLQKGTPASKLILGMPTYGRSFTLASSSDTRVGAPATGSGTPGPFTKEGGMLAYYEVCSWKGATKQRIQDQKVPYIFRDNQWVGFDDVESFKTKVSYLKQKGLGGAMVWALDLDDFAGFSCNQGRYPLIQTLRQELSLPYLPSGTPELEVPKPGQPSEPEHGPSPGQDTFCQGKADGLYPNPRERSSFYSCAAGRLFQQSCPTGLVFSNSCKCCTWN

Target: recombinant human CHIT1 (Homo sapiens (Human), UniProt Q13231)
Test: Human CHIT1 activity assay
Format: biochemical

IC50: < 0.1 µM
Compound: NC(=O)[C@H]1CN(C2CCN(c3nnc(N)[nH]3)CC2)[C@@H](Cc2ccc(Cl)cc2)CO1 [Example 9, (2R,5S)-4-(1-(5-amino-4H-1,2,4-triazol-3-yl)piperidin-4-yl)-5-(4-chlorobenzyl)morpholine-2-carboxamide]
